Source: article PMC6070450, “The tetraamine chelator outperforms HYNIC in a new technetium-99m-labelled somatostatin receptor 2 antagonist” (EJNMMI Research, 2018)

By UniProt entry, the sequences of proteins in these tests, tags left out. Where a name states a change or a piece, a line headed by the entry shows the natural chain unless it says otherwise.
UniProt P30680: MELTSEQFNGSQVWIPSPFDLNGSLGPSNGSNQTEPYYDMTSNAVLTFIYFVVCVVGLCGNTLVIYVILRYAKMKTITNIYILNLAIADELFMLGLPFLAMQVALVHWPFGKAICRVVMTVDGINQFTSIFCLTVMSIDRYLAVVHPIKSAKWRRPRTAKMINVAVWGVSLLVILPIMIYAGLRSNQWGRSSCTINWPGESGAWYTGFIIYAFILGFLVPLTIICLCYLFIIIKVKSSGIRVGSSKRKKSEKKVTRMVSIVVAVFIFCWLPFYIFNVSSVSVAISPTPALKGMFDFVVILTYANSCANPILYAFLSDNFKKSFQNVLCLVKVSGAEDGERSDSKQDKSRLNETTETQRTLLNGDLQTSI

Target: T1, sst2 receptor in HEK293-rsst2 cells (Rattus norvegicus, UniProt P30680)
T1 construct: expressed in transfected cells; host or cells: HEK293
Test: Immunofluorescence microscopy-based sst2 internalisation assay
Assay type: cell-based
Settings: 10 nM, 37 °C, 30 min, HEK-sst2 cells

[Tyr^3]octreotide [TOC]
sst2 receptor internalisation (agonist effect): triggers massive receptor internalisation
